This data set concerns human red blood cells (hRBCs). The data set can be described thus: Haemolytic activity. Conditions: 4% (v/v) hRBCs in PBS, 1 h at 37 °C, absorbance 405 nm; printed in both Gram-negative and Gram-positive sections. The class given is cell-based. The method, then: Peptide-induced lysis of human red blood cells (hRBCs) was determined as follows. Fresh hRBCs were washed 2–3 times with phosphate-buffered saline (PBS) by centrifugation for 5 min at 2500 rpm at 4 °C. Peptides in PBS were incubated with 4% (v/v) hRBCs for 1 h at 37 °C. Samples were then centrifuged for 5 min at 1000 × g. The absorbance of the supernatant at 405 nm was used as a measure of haemolysis. As a positive control, 100% haemolysis was obtained by treating hRBCs with 0.1% Triton X-100.

Take `CC[C@H](C)[C@H](NC(=O)CN)C(=O)NCC(=O)N[C@@H](C)C(=O)N[C@H](C(=O)N[C@@H](CC(C)C)C(=O)N[C@@H](CCCCN)C(=O)N[C@H](C(=O)N[C@@H](CC(C)C)C(=O)N[C@H](C(=O)N[C@H](C(=O)NCC(=O)N[C@@H](CC(C)C)C(=O)N1CCC[C@H]1C(=O)N[C@@H](C)C(=O)N[C@@H](CC(C)C)C(=O)N[C@H](C(=O)N[C@@H](CO)C(=O)N[C@@H](Cc1c[nH]c2ccccc12)C(=O)N[C@H](C(=O)N[C@@H](CCCCN)C(=O)N[C@@H](CCCNC(=N)N)C(=O)N[C@@H](CCCCN)C(=O)N[C@@H](CCCNC(=N)N)C(=O)N[C@@H](CCC(N)=O)C(=O)N[C@@H](CCC(N)=O)C(N)=O)[C@@H](C)CC)[C@@H](C)CC)[C@@H](C)O)[C@@H](C)O)C(C)C)C(C)C` [Melittin, reference compound]: the “MHC (minimal peptide concentration that produces haemolysis)” value was determined as 0.4 µM.

Source of the values: paper PMC5431190, “Investigation of cationicity and structure of pseudin-2 analogues for enhanced bacterial selectivity and anti-inflammatory activity” (Scientific Reports, 2017).
